Key:
CYP3A4 [1] = molecular target: T1, CYP3A4 (Homo sapiens, UniProt P08684); experiment: CYP3A inhibition assay, testosterone 6β-hydroxylase activity in pooled human hepatic microsomal fraction; conditions: read-out: CYP3A4 IC50 (μM) (testosterone), human hepatic microsomes, 0.5 mg/mL microsomal protein, 50 μM substrate
CYP3A4 [2] = molecular target: T1, CYP3A4; experiment: CYP3A inhibition assay, midazolam 1'-hydroxylase activity in pooled human hepatic microsomal fraction; assay type: biochemical; conditions: read-out: CYP3A4 IC50 (μM) (midazolam), human hepatic microsomes, 0.25 mg/mL microsomal protein

The chains behind the UniProt entries cited, without tags or fusion partners. Residues count along the entry.
UniProt P08684, 2-503 limits assumed: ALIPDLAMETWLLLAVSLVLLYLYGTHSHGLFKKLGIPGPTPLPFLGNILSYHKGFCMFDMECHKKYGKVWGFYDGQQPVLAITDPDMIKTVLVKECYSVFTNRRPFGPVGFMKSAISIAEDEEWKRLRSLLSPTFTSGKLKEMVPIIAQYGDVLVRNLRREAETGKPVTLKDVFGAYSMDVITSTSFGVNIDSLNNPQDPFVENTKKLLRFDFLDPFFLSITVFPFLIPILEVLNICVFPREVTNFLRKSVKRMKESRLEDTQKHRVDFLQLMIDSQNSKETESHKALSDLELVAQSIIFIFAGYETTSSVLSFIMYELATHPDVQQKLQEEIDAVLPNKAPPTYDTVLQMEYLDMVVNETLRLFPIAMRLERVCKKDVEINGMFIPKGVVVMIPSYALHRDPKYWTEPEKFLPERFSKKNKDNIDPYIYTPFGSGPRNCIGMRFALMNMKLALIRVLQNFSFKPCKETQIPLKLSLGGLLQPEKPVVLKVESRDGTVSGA

Row | SMILES | IC50 (CYP3A4 [1]) [µM] | IC50 (CYP3A4 [2]) [µM]
1 | CC(C)OC(=O)N[C@@H](CCN1CCOCC1)C(=O)N[C@H](CC[C@H](Cc1ccccc1)NC(=O)OCc1cncs1)Cc1ccccc1 | 0.4 | –
2 | O=C(N[C@H](CC[C@H](Cc1ccccc1)NC(=O)[C@H](CCN1CCOCC1)NS(=O)(=O)Cc1ccccc1)Cc1ccccc1)OCc1cncs1 | 0.47 | < 0.1
3 | CC(C)c1nc(CN(C)C(=O)N[C@H](C(=O)N[C@H](CC[C@H](Cc2ccccc2)NC(=O)OCc2ccccn2)Cc2ccccc2)C(C)C)cs1 | 1.6 | 0.43
4 | CC(C)c1nc(CN(C)C(=O)N[C@H](C(=O)N[C@H](CC[C@H](Cc2ccccc2)NC(=O)OCC(C)(C)C)Cc2ccccc2)C(C)C)cs1 | 2.2 | 0.87
5 | O=C(N[C@H](CC[C@H](Cc1ccccc1)NC(=O)[C@H](CCN1CCOCC1)NC(=O)N1CCCCC1)Cc1ccccc1)OCc1cncs1 | 0.29 | 0.19
6 | CC(C)c1nc(CN(C)C(=O)N[C@H](C(=O)N[C@H](CC[C@H](Cc2ccccc2)NC(=O)OCC2CCNC2)Cc2ccccc2)C(C)C)cs1 (some centres unmarked) | 1 | 0.35
7 | CC(C)c1nc(CN(C)C(=O)N[C@H](C(=O)N[C@H](CC[C@H](Cc2ccccc2)NC(=O)OCc2cccs2)Cc2ccccc2)C(C)C)cs1 | 2 | 1.1
8 | O=C(N[C@H](CC[C@H](Cc1ccccc1)NC(=O)[C@H](CO)NC(=O)N1CCCCC1)Cc1ccccc1)OCc1cncs1 | 0.31 | < 0.1
9 | CC(C)c1nc(CN(C)C(=O)N[C@H](C(=O)N[C@H](CC[C@H](Cc2ccccc2)NC(=O)OCc2cnco2)Cc2ccccc2)C(C)C)cs1 | 0.52 | 0.21
10 | O=C(N[C@@H](CC[C@@H](Cc1ccccc1)NC(=O)[C@@H]1C[C@@H](O)CN1C(=O)N1CCCCC1)Cc1ccccc1)OCc1cncs1 | 0.25 | < 0.1
11 | CC(C)c1nc(CN(C)C(=O)N[C@H](C(=O)N[C@H](CC[C@H](Cc2ccccc2)NC(=O)NCC(C)(C)C)Cc2ccccc2)C(C)C)cs1 | 2.1 | 0.6
12 | CC(C)OC(=O)N[C@H](CC[C@H](Cc1ccccc1)NC(=O)[C@@H](NC(=O)N(C)Cc1csc(C(C)C)n1)C(C)C)Cc1ccccc1 | 1.6 | 0.5
13 | CC(C)c1nc(CN(C)C(=O)N[C@H](C(=O)N[C@H](CC[C@H](Cc2ccccc2)NC(=O)NCc2cccs2)Cc2ccccc2)C(C)C)cs1 | 1.5 | 0.6
14 | O=C(N[C@H](CC[C@H](Cc1ccccc1)NC(=O)[C@H](CCN1CCOCC1)NC(=O)OCc1ccccc1)Cc1ccccc1)OCc1cncs1 | 0.4 | < 0.1
15 | O=C(N[C@H](CC[C@H](Cc1ccccc1)NC(=O)[C@@H]1C[C@H](N2CCOCC2)CN1C(=O)N1CCCCC1)Cc1ccccc1)OCc1cncs1 | 0.47 | 0.12
16 | CC(C)c1nc(CN(C)C(=O)N[C@H](C(=O)N[C@H](CC[C@H](Cc2ccccc2)NC(=O)OCc2cncn2C)Cc2ccccc2)C(C)C)cs1 | 0.29 | < 0.1
17 | CC(C)N(C)C(=O)N1C[C@H](O)C[C@H]1C(=O)N[C@@H](CC[C@@H](Cc1ccccc1)NC(=O)OCc1cncs1)Cc1ccccc1 | 0.27 | 0.13
18 | O=C(N[C@@H](CC[C@@H](Cc1ccccc1)NC(=O)[C@H](CO)NC(=O)N1CCCCC1)Cc1ccccc1)OCc1cncs1 | 0.2 | < 0.1
19 | CC(C)CC(=O)N[C@@H](CCN1CCOCC1)C(=O)N[C@H](CC[C@H](Cc1ccccc1)NC(=O)OCc1cncs1)Cc1ccccc1 | 0.38 | –
20 | CC(C)N(C)C(=O)N1C[C@@H](N2CCOCC2)C[C@H]1C(=O)N[C@H](CC[C@H](Cc1ccccc1)NC(=O)OCc1cncs1)Cc1ccccc1 | 0.58 | 0.21

Source: US20130274254A1, “INHIBITORS OF CYTOCHROME P450 (CYP3A4)” (Gilead Sciences, Inc., priority 2010, published 2013)
